# Measured affinities in a library of Ab-14 heavy chain variants

Binding partner: SARS-CoV-2 spike HR2 peptide, sequence PDVDLGDISGINAS.

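Designed CDR sequences, proposed from the first random library and measured here. Group labels follow the data file (Ctrl: baseline library sampled from a position-specific scoring matrix, with some repeated check sequences; Rand: our label for a block that the file lists under HC and that is probably the random mutants of the ten best first-round binders; GP: Gaussian process model; GPLM: also part of the Gaussian process libraries; HC: hill climbing; Gen: genetic algorithm; Gibbs: Gibbs sampling; a sequence that several methods proposed may carry one label only). The scFvs were displayed on barcoded MATa yeast, the peptide on MATalpha yeast. Pairs that bind mate more often; barcode pairs of the diploids are counted by sequencing. Read counts were normalised to the haploid input and turned into Kd by a linear fit to BCL2-family pairs of known affinity, for each replicate. The assay was run in six technical replicates.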

The variants keep the light chain, the linker and the frameworks of Ab-14 (scFv order VH, a 15-residue (Gly4Ser)3 linker, VL).
VH: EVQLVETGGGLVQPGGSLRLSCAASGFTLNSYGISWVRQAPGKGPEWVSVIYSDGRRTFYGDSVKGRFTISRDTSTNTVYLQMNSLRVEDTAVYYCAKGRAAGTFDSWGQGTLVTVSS
VL: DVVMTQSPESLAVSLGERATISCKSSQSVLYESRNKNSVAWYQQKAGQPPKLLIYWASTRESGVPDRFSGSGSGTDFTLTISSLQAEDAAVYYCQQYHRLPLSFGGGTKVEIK

Substitutions are numbered in sequence along the VH above, starting at 1 (not Kabat).
Variants here have at most six changes.
Each Kd is an estimate from the mating assay, the geometric mean of the replicates in which the pair was seen; lower is stronger.
A pair that was not seen in any replicate is written "nd"; this usually means weak binding, but a binder can also be missed.
The authors' rule: three or more of the six replicates give a measured affinity, fewer mean a poor binder.

- R100G+S107V [Ctrl]: 48 nM (3 of 6 replicates)
- S53A+Y60W+A102F+F105N+D106K [Rand]: nd (0 of 6 replicates)
- N30E+S31D [Ctrl]: 18 nM (6 of 6 replicates)
- T28E+S31A+R100K+A101E [GP_Gibbs]: 14 nM (6 of 6 replicates)
- T28N+G61T+A101N [GP_Gibbs]: 5.6 nM (6 of 6 replicates)
- N30E+G61A+S107A [GPLM_Gen]: 6.5 nM (6 of 6 replicates)
- G61S+R100E+S107V [GPLM_Gen]: 5.1 nM (6 of 6 replicates)
- T28S+S53A+R100K+A101V [GP_Gibbs]: 530 pM (6 of 6 replicates)
- G61S+R100T [GPLM_Gen]: 4.1 nM (6 of 6 replicates)
- T28E+G61D+R100L+A101L [GP_HC]: 1.0 nM (6 of 6 replicates)
- T28Q+S53A+R100Q+S107K [GP_Gibbs]: 18 nM (5 of 6 replicates)
- F59S+R100S+D106N [Ctrl]: 40 nM (1 of 6 replicates)
- T28N+G61I+S63R+R100Q [GP_Gen]: 55 nM (2 of 6 replicates)
- G26K [Ctrl]: nd (0 of 6 replicates)
- T28E+S53A+S107C [GP_Gibbs]: 13 nM (3 of 6 replicates)
- T28P+G61D+R100Q+A101E [GP_HC]: 11 nM (6 of 6 replicates)
- G26R+L29I+A102Q [Ctrl]: nd (0 of 6 replicates)
- T28P+S31E+S63A+A101T [GPLM_Gibbs]: 1.4 nM (6 of 6 replicates)
- G26K+T28N+S31N+A101N [GP_Gibbs]: nd (0 of 6 replicates)
- T28D+G61A+A101E+S107T [GPLM_Gibbs]: 1.4 nM (6 of 6 replicates)
- T28N+G61I+R100K+A101E [GP_Gen]: 3.1 nM (6 of 6 replicates)
- T28K+S53A+R100K [Ctrl]: 2.3 nM (6 of 6 replicates)
- T28E+R56Q+A101T+S107K [GP_Gibbs]: 8.6 nM (6 of 6 replicates)
- T28S+G61I+R100W+A101T [GPLM_Gibbs]: 63 nM (6 of 6 replicates)
- N30D+S31E+R100Y [Ctrl]: 8.2 nM (4 of 6 replicates)
- F59Y+G61Q+A101Q+T104Y+S107L [Ctrl]: nd (0 of 6 replicates)
- F27E+T28S+G61A+D106N [Ctrl]: 6.5 nM (6 of 6 replicates)
- G26R+G61I+A101Q [GP_HC]: nd (0 of 6 replicates)
- G26K+T28E+G61A+A101T+S107T [GP_Gibbs]: 1.7 nM (6 of 6 replicates)
- T28D+S31E+G61D+R100K [GP_Gibbs]: 570 pM (6 of 6 replicates)

From the list, the first 4 with no signal in any replicate:

- S53A+Y60W+A102F+F105N+D106K [Rand] -> nd (0 of 6 replicates)
- G26K [Ctrl] -> nd (0 of 6 replicates)
- G26R+L29I+A102Q [Ctrl] -> nd (0 of 6 replicates)
- G26K+T28N+S31N+A101N [GP_Gibbs] -> nd (0 of 6 replicates)

A sequence measured in both rounds can read differently, since the two assays cover different ranges.
Empty control strains, which show no peptide, gave a signal in 1% of pairings with all heavy chain designs; the median was 120 nM and 95% of these signals were weaker than 7.0 nM. No background was subtracted.

From the AlphaSeq antibody data of Li et al. 2023 (doi:10.1038/s41467-023-39022-2), copy in the FLAb collection.